Publication PMC9194530, “Interaction of Colchicine-Site Ligands With the Blood Cell-Specific Isotype of β-Tubulin—Notable Affinity for Benzimidazoles” (Frontiers in Cell and Developmental Biology, 2022)
Where two headings read alike, the source gives them in different places.

By UniProt entry, the sequences of proteins in these tests, tags left out.
UniProt P09207, whole entry: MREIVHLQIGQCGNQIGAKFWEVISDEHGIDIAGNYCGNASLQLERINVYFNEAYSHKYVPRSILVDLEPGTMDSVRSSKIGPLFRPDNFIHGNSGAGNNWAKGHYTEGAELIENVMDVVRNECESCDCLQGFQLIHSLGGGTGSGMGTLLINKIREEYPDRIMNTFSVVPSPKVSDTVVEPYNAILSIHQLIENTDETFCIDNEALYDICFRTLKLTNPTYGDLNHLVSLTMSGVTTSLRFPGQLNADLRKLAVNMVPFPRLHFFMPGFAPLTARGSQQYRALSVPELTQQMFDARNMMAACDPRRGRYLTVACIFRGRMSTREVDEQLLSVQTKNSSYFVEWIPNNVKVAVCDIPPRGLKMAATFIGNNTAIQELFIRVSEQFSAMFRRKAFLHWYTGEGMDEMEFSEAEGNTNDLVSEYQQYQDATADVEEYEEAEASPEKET

Tests used:
CeTb, colchicine site = CeTb, colchicine site (Gallus gallus, UniProt P09207); experiment: Single-point MDL competitive binding inhibition screen, erythrocyte tubulin
[1] = biological target: Erythrocyte tubulin (CeTb), colchicine site (Gallus gallus, UniProt P09207); experiment: biochemical; format: binding, chicken (Gallus gallus)
[2] = Erythrocyte tubulin (CeTb) Kd (Table 4, selected drugs)

COc1ccc(NS(=O)(=O)c2c(F)c(F)c(F)c(F)c2F)cc1F [T138067 (Batabulin), Batabulin]
Kd (CeTb, colchicine site): 415 µM

COc1cc2c(c(N)c1OC)C(=O)/C(=C\c1cc(C)c(O)c(C)c1)C2 [Indanocine]
Kd (CeTb, colchicine site): 16 µM
ratio in Kd(app), CeTb vs BTb (CeTb, colchicine site; single-point screen): ca. 4.5 fold

COc1ccc(/C=C\c2cc(OC)c(OC)c(OC)c2)cc1O [Combretastatin A4, cis-Combretastatin A4]
Kd (CeTb, colchicine site): 9.5 µM
IC50 [1]: 20 ± 1.2 µM
Kd ([1]; Erythrocyte tubulin (CeTb) Kd): 5.7 ± 0.32 µM
Kd [1, 2]: 5.7 µM

COC(=O)Nc1nc2ccc(C(=O)c3cccs3)cc2[nH]1 [Nocodazole]
Kd (CeTb, colchicine site): 0.68 µM
IC50 [1]: 1.5 ± 0.11 µM
Kd ([1]; Erythrocyte tubulin (CeTb) Kd): 0.51 ± 0.036 µM
Kd [1, 2]: 0.6 µM

COc1ccc(S(=O)(=O)Nc2cccnc2Nc2ccc(O)cc2)cc1 [ABT-751]
Kd (CeTb, colchicine site): 124 µM

COc1ccc(/C=C\c2cc(OC)c(OC)c(OC)c2)cc1O [CS-A4 trans, combretastatin-A4 (trans)]
Kd (CeTb, colchicine site; read-out: CeTb Kd(app), from single-point data (50 µM drug) fitted with single-site isotherm, Eq. 4): 228 µM
